Molecular target: T1, SV2AWT (Homo sapiens, UniProt Q7L0J3)
T1 construct: expressed in transfected cells; host or cells: HEK293 (ATCC CRL-1573), crude membranes
Experiment: Competitive displacement of 10 nM 3H-UCB-J, SV2AWT membranes (Fig. 1A)
Details: read-out: Binding of 3H-UCB-J (%), SV2A_WT; Log [Levetiracetam] (M) -4.523
Experimental: Ligand binding studies were carried out using crude membranes prepared from HEK293 cells (ATCC, CRL-1573) overexpressing mVenus-SV2AWT or SV2AEM. Membranes were prepared either from transiently transfected cells or from baculovirus-infected cells as described previously. Cells were washed with DPBS (Ca^2+ and Mg^2+ free), followed by resuspending in cold SH buffer (10 mM HEPES-Tris pH 7.4, 320 mM sucrose) containing protease inhibitor cocktail (MedChemExpress) to a density of 10^7 cells/ml. This cell suspension was homogenized by passing through a bead homogenizer (Isobiotec) with 10-micron clearance bead on ice. The lysate was then centrifuged at 4000 × g for 5 min at 4 °C, and the supernatant was aliquoted, frozen in liquid nitrogen, and stored at −80 °C. The mVenus fluorescence estimated using fluorescence size-exclusion chromatography (FSEC) was used to normalize expression levels of mVenus-SV2A mutants studied as detailed previously. For all binding studies, membranes containing […] protein (estimated by BCA method) per reaction were used.
To obtain dose-response curves of studied SV2A ligands, membranes diluted in 0.2 ml binding buffer (50 mM Tris-Cl, pH 7.4, and 2 mM MgCl2) were incubated with indicated concentrations of ligands for 30 min at 4 °C. […] Radioactivity was monitored in MicroBeta2 plate counter (Revvity). […]

Protein sequences, listed by entry. Tags and fused reporters are not part of them.
UniProt Q7L0J3, whole entry: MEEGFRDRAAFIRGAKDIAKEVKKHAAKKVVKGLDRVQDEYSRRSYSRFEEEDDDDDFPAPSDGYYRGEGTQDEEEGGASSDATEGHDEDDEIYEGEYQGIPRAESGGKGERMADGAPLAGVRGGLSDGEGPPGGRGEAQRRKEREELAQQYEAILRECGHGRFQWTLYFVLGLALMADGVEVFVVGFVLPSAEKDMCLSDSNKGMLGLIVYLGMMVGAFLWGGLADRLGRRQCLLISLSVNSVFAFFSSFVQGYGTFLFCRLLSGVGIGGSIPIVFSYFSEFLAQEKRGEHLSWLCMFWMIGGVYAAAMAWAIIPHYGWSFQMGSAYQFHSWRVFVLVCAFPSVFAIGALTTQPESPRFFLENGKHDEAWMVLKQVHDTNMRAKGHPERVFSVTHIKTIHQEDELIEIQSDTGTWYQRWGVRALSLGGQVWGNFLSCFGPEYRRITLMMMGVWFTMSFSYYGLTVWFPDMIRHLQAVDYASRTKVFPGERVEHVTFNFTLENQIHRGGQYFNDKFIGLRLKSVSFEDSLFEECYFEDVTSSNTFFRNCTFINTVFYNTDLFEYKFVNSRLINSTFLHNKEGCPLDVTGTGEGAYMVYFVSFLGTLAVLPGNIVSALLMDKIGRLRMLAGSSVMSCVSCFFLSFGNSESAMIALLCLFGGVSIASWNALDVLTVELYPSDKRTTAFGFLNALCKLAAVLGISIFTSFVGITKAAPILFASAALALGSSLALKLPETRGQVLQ

For `CC[C@@H](C(N)=O)N1CCCC1=O` [levetiracetam], which remaining activity at 30 µM is on record?
Its remaining activity at 30 µM is 42.4%.
